# logP (octanol/water) values, as collected for the OPERA models

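OPERA's authors assembled the values from existing databases and did not measure them anew. The files give a single number for a compound and property, which may rest on several reports. Method, purity and exact conditions of the single measurements are not given. A value may pool stereoisomers or salt forms, and the file does not say which form was measured. Some upstream entries may be estimates or bounds without being marked so.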

logP is the log10 of the octanol-water partition coefficient; higher is more lipophilic. The databases behind each value are named after "via".

compound | logP | via
FC(C(F)(F)F)C(F)(F)Oc1cc(Cl)ccc1Cl (centres undefined) | 4.72 | eChemPortal
CC(=O)OCCN(CCOC(C)=O)c1ccc(/N=N/c2ccc([N+](=O)[O-])cc2C#N)cc1 | 3.7 | eChemPortal
CCc1ccc(C)nc1 | 2.245 | PubChem, eChemPortal
Cl.Cn1sccc1=O | -0.44 | eChemPortal
CCS | 1.5 | PubChem
Nc1cc(S(=O)(=O)[O-])cc2cc(S(=O)(=O)O)cc(O)c12.[Na+] | -2.3 | eChemPortal
CC(=O)NCC(N)=O | -1.83 | OCHEM
O=c1[nH]c(=O)n([C@@H]2O[C@H](CO)C[C@@H]2F)cc1F | -0.72 | OCHEM
COC(=O)c1ccc(C(F)(F)F)nc1S(=O)(=O)[N-]C(=O)Nc1nc(OC)cc(OC)n1.[Na+] | 0.96 | OCHEM
Cc1[nH]c(N)nc(=O)c1CCO | -1.01 | eChemPortal
CC1(C)CC(O)CC(C)(C)N1 | 0.24 | eChemPortal
CCN[C@@H]1C[C@H](N)[C@@H](O[C@H]2OC(CN)=CC[C@H]2N)[C@H](O)[C@H]1O[C@H]1OC[C@](C)(O)[C@H](NC)[C@H]1O | -3 | PubChem
CC(C)(C)C(=O)C=Cc1ccc2c(c1)OCO2 | 3.65 | eChemPortal
COc1ccccc1N1CCN(CCOCc2ccc(F)cc2)CC1 | 3.6 | OCHEM
CC(C)CCC(C)Nc1ccc(Nc2ccccc2)cc1 (centres undefined) | 2.82 | eChemPortal
COc1cc([N+](=O)[O-])c(OC)cc1Cl | 2.03 | eChemPortal
CCCCCCOC(=O)c1cc(=O)[nH]c(=O)[nH]1 | 1.76 | OCHEM
COc1cc(Br)c(CN(C=O)CCc2ccc(O)cc2)cc1O | 2.7 | eChemPortal
O=C(O[C@H]1C[C@H]2CC3C[C@@H](C1)[N@@]2CC3=O)c1c[nH]c2ccccc12 | 2.1 | PubChem
O=[N+]([O-])c1ccc(C2CSCN2)cc1 (centres undefined) | 1.68 | OCHEM
CC1(C)S[C@@H]2[C@H](N=CN3CCCCCC3)C(=O)N2[C@H]1C(=O)O | 1.3 | PubChem
Clc1nc(N2CCCCC2)c2nc(Cl)nc(N3CCCCC3)c2n1 | 2 | eChemPortal
O=c1[nH]c2ccc([N+](=O)[O-])cc2[nH]1 | 1.35 | eChemPortal
CCOCCOC(C)(C)C | 2.2 | eChemPortal
CCCCCCC1CCCC(=O)O1 (centres undefined) | 2.95 | eChemPortal
C=C1CCOC(C=C(C)C)C1 (centres undefined) | 3.2 | eChemPortal
Nc1nc(CC(=O)O)cs1 | -2.13 | eChemPortal
C/C=C/C1CCC(C[P+](c2ccccc2)(c2ccccc2)c2ccccc2)CC1.[I-] (stereo partly drawn) | 1.55 | eChemPortal
O=[N+]([O-])c1cc(Cl)c(N=Nc2ccc(N(CCO)CCO)cc2Cl)c(Br)c1 | 4.2 | eChemPortal
CCOC(=O)C(C)(C)n1nc2ccccc2n1 | 2.98 | OCHEM
CC[C@H](C)[C@H](N)C(=O)N1CCC[C@H]1C(O)=N[C@H](C(=O)O)[C@@H](C)CC | -1.65 | OCHEM
CCCN1Cn2c(nc3ccccc3c2=O)C1C (centres undefined) | 1.4 | OCHEM
CCCCCCc1ccc(-c2ccc(C#N)cc2)cc1 | 6.09 | OCHEM
C=C(C)C(=O)Oc1ccccc1 | 2.74 | eChemPortal
CC(=O)O[C@H]1CC[C@H]2[C@@H]3CCc4cc(O)ccc4[C@H]3CC[C@]12C | 4 | eChemPortal
CN1CCCCC1CCN1c2ccccc2Sc2ccc(S(C)=O)cc21 (centres undefined) | 3.9 | PubChem
COC(=O)C(=Cc1ccc(OC)cc1)C(=O)OC | 2.4 | eChemPortal
Cc1cc(Cl)cc2c1C(=O)/C(=C1/Sc3cc(Cl)cc(C)c3C1=O)S2 | 2.06 | eChemPortal
Cc1ccc2[nH]c3cc4c(=O)c5cc(C)ccc5[nH]c4cc3c(=O)c2c1 | 2.2 | eChemPortal
CC(=O)N1C[C@H](O)C[C@H]1C(=O)O | -1.51 | eChemPortal
O=C(O)CCCCCCCCCC(=O)O | 2.8 | eChemPortal
CCCCCC1CCCC1=O (centres undefined) | 3.28 | eChemPortal
Cc1c(C)c([N+](=O)[O-])c(C(C)(C)C)c([N+](=O)[O-])c1C | 4.3 | OCHEM

Excerpt, the final 3 entries:

compound | logP | via
O=C(O)CCCCCCCCCC(=O)O | 2.8 | eChemPortal
CCCCCC1CCCC1=O (centres undefined) | 3.28 | eChemPortal
Cc1c(C)c([N+](=O)[O-])c(C(C)(C)C)c([N+](=O)[O-])c1C | 4.3 | OCHEM

Data: OPERA 2.9 data sets, kmansouri/OPERA on GitHub.